ChEMBL document CHEMBL4270486, “Anti-inflammatory Activity of Natural Geranylated Flavonoids: Cyclooxygenase and Lipoxygenase Inhibitory Properties and Proteomic Analysis” (J Nat Prod, 2017)

What was measured:
[1] = Selectivity index, ratio of IC50 for ram seminal vesicle COX1 to IC50 for human recombinant COX2
[2] = target: T1, Polyunsaturated fatty acid 5-lipoxygenase (Homo sapiens) (UniProt P09917); experiment: Potency index, ratio of IC50 for zileuton to IC50 for test compound fior inhibition of human recombinant 5-LOX assessed as reduction in leukotriene B4 production pre-incubated for 10 mins before arachidonic acid addition and measured after 10 mins by ELISA
T1 sequence (whole entry): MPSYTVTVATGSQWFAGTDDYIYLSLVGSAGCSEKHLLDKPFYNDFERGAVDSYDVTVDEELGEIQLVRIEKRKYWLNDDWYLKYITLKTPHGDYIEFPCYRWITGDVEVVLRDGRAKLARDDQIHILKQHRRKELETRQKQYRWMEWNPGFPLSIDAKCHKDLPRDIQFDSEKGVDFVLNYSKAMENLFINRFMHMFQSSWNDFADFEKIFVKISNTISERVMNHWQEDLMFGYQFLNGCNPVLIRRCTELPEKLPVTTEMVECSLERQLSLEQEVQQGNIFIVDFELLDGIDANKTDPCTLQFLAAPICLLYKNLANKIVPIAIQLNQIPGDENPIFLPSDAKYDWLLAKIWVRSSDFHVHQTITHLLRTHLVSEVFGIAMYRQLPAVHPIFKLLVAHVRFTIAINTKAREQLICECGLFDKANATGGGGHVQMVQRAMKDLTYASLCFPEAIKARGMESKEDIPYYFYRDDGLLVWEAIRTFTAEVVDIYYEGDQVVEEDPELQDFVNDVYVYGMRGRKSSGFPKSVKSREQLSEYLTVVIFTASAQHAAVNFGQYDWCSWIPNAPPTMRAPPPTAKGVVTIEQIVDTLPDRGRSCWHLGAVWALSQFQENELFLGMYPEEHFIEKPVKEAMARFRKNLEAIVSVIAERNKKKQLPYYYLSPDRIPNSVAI

**Q.** For CC(C)=CCC/C(C)=C/Cc1c(O)cc2c(c1O)C(=O)C[C@@H](c1ccc(O)c(O)c1)O2 [NYMPHAEOL A], which Ratio IC50 [1] is on record?
**A.** 0.43

**Q.** And the Ratio IC50 [2]?
**A.** 10
